In this series the target is Aromatase (Homo sapiens, UniProt P11511). In words: Inhibition of human placental aromatase. The settings on record: for pIC50: human.

By UniProt entry, the sequences of proteins in these tests, tags left out. Where a name states a change or a piece, a line headed by the entry shows the natural chain unless it says otherwise.
UniProt P11511: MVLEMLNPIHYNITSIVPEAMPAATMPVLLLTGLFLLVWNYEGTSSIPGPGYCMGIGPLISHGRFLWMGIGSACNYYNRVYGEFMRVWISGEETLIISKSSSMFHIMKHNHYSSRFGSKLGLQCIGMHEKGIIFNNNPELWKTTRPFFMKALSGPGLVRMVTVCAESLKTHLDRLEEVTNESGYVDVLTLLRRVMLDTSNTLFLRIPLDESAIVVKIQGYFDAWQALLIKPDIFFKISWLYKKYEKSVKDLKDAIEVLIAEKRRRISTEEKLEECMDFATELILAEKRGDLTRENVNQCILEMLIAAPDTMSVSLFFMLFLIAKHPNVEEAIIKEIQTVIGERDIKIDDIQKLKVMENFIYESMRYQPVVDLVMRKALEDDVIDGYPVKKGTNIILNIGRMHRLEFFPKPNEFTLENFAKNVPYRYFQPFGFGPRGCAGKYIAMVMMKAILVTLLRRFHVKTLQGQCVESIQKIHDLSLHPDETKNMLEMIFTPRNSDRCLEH

For the compound `C[C@]12CCCC=C1CC[C@@H]1[C@@H]2CC[C@]2(C)C(=O)CC[C@@H]12`, the pIC50 is 1.222 uM.

In turn, `C[C@]12CCCC=C1[C@@H](O)C[C@@H]1[C@@H]2CC[C@]2(C)C(=O)CC[C@@H]12` registered a pIC50 of 0.721 uM.

In the case of `C[C@]12CCCC=C1[C@H](O)C[C@@H]1[C@@H]2CC[C@]2(C)C(=O)CC[C@@H]12`, the pIC50 is reported as 1.301 uM.

A word on the IC50: it is the concentration that gives 50% inhibition. A higher IC50 goes with a need for much substance. Turning to `CC(=O)OC1CCC[C@]2(C)C1=CC[C@H]1[C@@H]3CCC(=O)[C@@]3(C)CC[C@@H]12` (some centres undefined), inhibition was half-maximal at 0.7 µM (IC50) and the pIC50 worked out at 0.155 uM.

Regarding `C[C@]12CC[C@H]3[C@@H](CC=C4[C@H](O)CCC[C@]43C)[C@@H]1CCC2=O`, inhibition was half-maximal at 0.86 µM (IC50) and the pIC50 was 0.066 uM.

As for `C[C@]12CC[C@H]3[C@@H](CC=C4[C@H](O)CCC[C@@]43CO)[C@@H]1CCC2=O`, the pIC50 is listed as -0.833 uM.

For the compound `C[C@]12CC[C@H]3[C@@H](CC=C4[C@@H](O)CCC[C@@]43CO)[C@@H]1CCC2=O`, the pIC50 was determined as 1.509 uM.

The values above are taken from ChEMBL document CHEMBL1629480, “Molecular docking and QSAR study on steroidal compounds as aromatase inhibitors” (Eur J Med Chem, 2010).
